## AlphaSeq binding of Ab-14 heavy chain variants to a spike HR2 peptide

All variants were tested on one target, the spike HR2 peptide PDVDLGDISGINAS (SARS-CoV-2).

Parent: Ab-14, a human scFv built as VH, a 15-residue (Gly4Ser)3 linker, VL. Only the CDRs of the heavy chain vary.
VH: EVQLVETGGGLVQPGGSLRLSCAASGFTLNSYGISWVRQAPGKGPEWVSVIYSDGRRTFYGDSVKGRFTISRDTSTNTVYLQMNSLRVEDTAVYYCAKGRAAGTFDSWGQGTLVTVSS
VL: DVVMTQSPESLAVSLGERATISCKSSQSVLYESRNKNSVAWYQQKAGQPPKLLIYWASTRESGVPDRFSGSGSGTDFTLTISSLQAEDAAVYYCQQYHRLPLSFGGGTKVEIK

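Phage display of a naive human antibody library on the peptide gave the parent. These sequences belong to a second round, designed from the earlier measurements on random variants of the parent. Group labels follow the data file (Ctrl: baseline library sampled from a position-specific scoring matrix, with some repeated check sequences; Rand: our label for a block that the file lists under HC and that is probably the random mutants of the ten best first-round binders; En: ensemble of fine-tuned language models; GP: Gaussian process model; GPLM: also part of the Gaussian process libraries; HC: hill climbing; Gen: genetic algorithm; Gibbs: Gibbs sampling; a sequence that several methods proposed may carry one label only). The assay is AlphaSeq: two haploid yeast populations carry antibody and antigen on their surface. Mating (16 h, 30 °C) was followed by selection of diploids and sequencing of their barcodes. A regression on co-assayed BCL2-family reference pairs converts the normalised counts of each replicate to an apparent Kd. The assay was run in six technical replicates.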

Each variant is given by its three heavy chain CDRs, as the data file delimits them; those of the parent are GFTLNSYGIS, VIYSDGRRTFYGDSVK, GRAAGTFDS. Variants here have at most six changes. The Kd shown is the geometric mean over detected replicates; a lower Kd is a better binder. "nd" marks a missing value. The strain was present, yet no cells mated with the target were sequenced in any replicate, which points to weak or no binding. A sequence measured in both rounds can read differently, since the two assays cover different ranges. Of ten entries with the parent sequence, four were seen in most replicates (averages 2.2 nM to 240 nM), three in one and three in none, so single entries are noisy. The authors averaged sequences with at least three values out of six and counted those with two or fewer as poor binders. Three control strains display no target. For all heavy chain designs, 1% of the pairings with them gave a signal, with a median of 120 nM and one signal in twenty below 7.0 nM, so weak values seen in few replicates may be background.

Variant GFSLNSYGIS / VIYSDGRRTFYDDSVK / GKTAGTFDS [GPLM_Gibbs] gave 5.4 nM (2 of 6 replicates). Variant GFTMNSYGIS / VIYSDGFRTFYGDSVK / GRAAGTFDS [Ctrl] showed 12 nM (5 of 6 replicates). Variant GFSLNEYGIS / VIYSDGRRTFYGDSVK / GRHAGTFDT [GPLM_Gibbs] showed nd (0 of 6 replicates). With GFSLNMYGIS / VIYSDGRRTFYSDSVK / GEAAGTFDS [GPLM_Gibbs] the result was 6.2 nM (6 of 6 replicates). With GFNLKSYGIS / VIYSDGRRTFYGDSVK / GRAAGTFDS [Ctrl] the result was 26 nM (6 of 6 replicates). Variant GFSLNEYGIS / VIYSDGRRTFYGDQVK / GRTAGTFDS [GPLM_Gen] gave 2.7 nM (6 of 6 replicates).

For GFELNMYGIS / VIYSDGRRTFYHDSVK / GSAAGTFDS [GP_Gibbs], the assay gave 1.5 nM (6 of 6 replicates). Variant GFTLDSYGIS / VIYSDGKRTFYADSVK / GRAAGTFDS [GPLM_Gen] gave 14 nM (5 of 6 replicates). For GFTLSDYGIS / VIYSDGRRTFYGDSVK / GPSSATFDS [Ctrl], the assay gave nd (0 of 6 replicates). Variant GFSLNSYGIS / VIYSDGRRTFYGDSVK / GMTAGTFDQ [GP_Gibbs] showed 3.1 nM (6 of 6 replicates). Variant LFSLNSYGIS / VIYSDGRRTFYADSVK / GRTAGTFDS [GPLM_Gen] gave 9.8 nM (6 of 6 replicates). For GFDLNSYGIS / VIYSDGRRTFYGDSVK / GMTAGTFDA [GP_Gibbs], the assay gave 1.0 nM (6 of 6 replicates).

Variant HFNLNSYGIS / VIYSDGRRTFYGDSVK / GRTAGTFDS [GPLM_Gen] showed 93 nM (2 of 6 replicates). Variant GFDLNSYGIS / VIYSDGRRTFYGDAVK / GKEAGTFDS [GP_Gibbs] gave 600 pM (6 of 6 replicates). For GFDLNSYGIS / VIYSDGRRTFYGDSVK / GKAAGTFDQ [GPLM_Gen], the assay gave 5.0 nM (5 of 6 replicates). Variant GFTLNEYGIS / VIYSDGRRTFYTDQVK / GRFAGTFDS [GPLM_HC] gave 80 nM (6 of 6 replicates). Variant GFTLNNYGIS / VIYSDGRRTFYADSVK / GENAGTFDW [Ctrl] showed 21 nM (6 of 6 replicates). Variant GFELNSYGIS / VIYSDGRRTFYDDSVK / GKNAGTFDS [GP_Gibbs] showed nd (0 of 6 replicates).

Variant GFELNSYGIS / VIYSDGRRTFYGDSVK / GKTAGTFDW [GP_Gen] showed 39 nM (5 of 6 replicates). With GFGLNSYGIS / VIYSDGRRTFYSDAVK / GKTAGTFDS [GP_Gibbs] the result was 1.1 nM (6 of 6 replicates). Variant GFTLNSYGIS / VIYSDGRRTFYSDSVK / GEVAGTFDS [GPLM_Gen] gave 790 pM (6 of 6 replicates). Variant GFTLNEYGIS / VIYSDGRRTFYGDSVK / GQAAVTFDD [Rand] showed nd (0 of 6 replicates). With GFSLNSYGIS / VIYSDGRRTFYSDSVK / GSVAGTFDS [GPLM_Gibbs] the result was 210 pM (6 of 6 replicates). With GFTLESYGIS / VIYADGRRTFYGDGVK / GRAAGTFKS [GP_HC] the result was nd (0 of 6 replicates).

Variant GFTLDSYGIS / VIYSDGRRTFYGDSVK / GRAAGTFHD [GPLM_HC] showed nd (0 of 6 replicates). For GFTLNSYGIS / VIYSDGRRTFYADQVK / GKEAGTFDS [GP_Gibbs], the assay gave 890 pM (6 of 6 replicates). With GFQLNDYGIS / VIYSDGRRTFYIDSVK / GKAAGTFDS [GP_HC] the result was 3.1 nM (6 of 6 replicates). Variant GRTLDSYGIS / VIYSDGRRTFYGDSVK / WRAAGTFDL [Ctrl] gave nd (0 of 6 replicates). Variant GFSLNEYGIS / VIYSDGRRTFYGDSVK / GKTAGTFDS [GPLM_Gen] gave 290 nM (1 of 6 replicates). Variant GFDLNSYGIS / VIYSDGRRTFYQDSVK / GRQAGTFDA [GP_Gen] gave 1.3 nM (6 of 6 replicates).

With GFTLDSYGIS / VIYSDGRRTFYGDSVK / GNAAGTFDS [GP_HC] the result was 7.4 nM (6 of 6 replicates). Variant GFTLNSIGIS / VIYSDGRRTFYSDSVK / GRAGGTFDS [Rand] showed 160 nM (5 of 6 replicates). With GFKLNSYGIS / VIYSDGRRTFYKDSVK / GQTAGTFDS [GPLM_Gen] the result was 81 nM (6 of 6 replicates). With GFDLNSYGIS / VIYSDGRRTFYGDMVK / GRIAGTFDS [GP_Gen] the result was 3.1 nM (6 of 6 replicates). Variant GFDLNDYGIS / VIYSDGRRTFYGDAVK / GRIAGTFDI [GP_HC] showed 7.3 nM (6 of 6 replicates). For GFTLNSYGIS / VIYSDGRRTFYSDSVK / GRAHGTFDS [Rand], the assay gave nd (0 of 6 replicates).

Variant GFELNAYGIS / VIYSDGRRTFYGDQVK / GRTAGTFDS [GP_Gibbs] gave 22 nM (6 of 6 replicates). Variant GFDLNSYGIS / VIYSDGRRTFYSDAVK / GRTAGTFDS [GPLM_Gen] gave 990 pM (6 of 6 replicates). With GFTLNSYGIS / VIYSDGRRTFYHDSVK / GRAATTFDS [Ctrl] the result was nd (0 of 6 replicates). Variant GFTLNEYGIS / VIYSDGMRTFYTDSVK / GRFAGTFDS [GPLM_HC] gave 5.3 nM (6 of 6 replicates). Variant GFSLNSYGIS / VIYSDGRRTFYADQVK / GKTAGTFDS [GP_Gen] gave 2.2 nM (6 of 6 replicates). Variant GFTLNSYGIS / VIYADGRRTFYGDSVK / GRQAGTFKS [GPLM_HC] showed 1.3 nM (6 of 6 replicates).

For GETLNSYGIS / VIYSDGWRTFYGDSVK / GRAAGEFDS [Ctrl], the assay gave nd (0 of 6 replicates). For GFELNSYGIS / VIYSDGRRTFYGDQVK / GQTAGTFDQ [GP_Gibbs], the assay gave 22 nM (4 of 6 replicates). With GFTMNSYGIS / VIYSDGRRTFYADSVK / GRAAGAFDS [Ctrl] the result was 800 nM (1 of 6 replicates). For WFTLNEYGIS / VIYSDGRRTFYTDSVK / GRFAGTFDS [En_HC], the assay gave 1.0 µM (3 of 6 replicates). For GFTLDSYGIS / VIYSDGRRTFYVDSVK / GRTAGTFDS [GPLM_Gen], the assay gave 6.8 nM (3 of 6 replicates). With GETLNDYGIS / VIYSDGRRTMYIDSVK / GRAAGTFDS [GP_HC] the result was 64 nM (6 of 6 replicates).

With GFTLNQYGIS / VIYSDGRRTFYADSVK / GRAAGTFDK [GPLM_HC] the result was 4.0 nM (6 of 6 replicates). Variant GFDLNSYGIS / VIYSDGRRTFYGDSVK / GNAAGTFDN [GP_Gen] showed 4.2 nM (6 of 6 replicates). Variant GFTLESYGIS / VIYSDGRRTFYGDDVK / GEAAGTFDS [GP_Gibbs] gave 3.3 nM (5 of 6 replicates).

From the list, the first 6 with no signal in any replicate:

CDR-H1,CDR-H2,CDR-H3,group,Kd,detected
GFSLNEYGIS,VIYSDGRRTFYGDSVK,GRHAGTFDT,GPLM_Gibbs,nd,0 of 6
GFTLSDYGIS,VIYSDGRRTFYGDSVK,GPSSATFDS,Ctrl,nd,0 of 6
GFELNSYGIS,VIYSDGRRTFYDDSVK,GKNAGTFDS,GP_Gibbs,nd,0 of 6
GFTLNEYGIS,VIYSDGRRTFYGDSVK,GQAAVTFDD,Rand,nd,0 of 6
GFTLESYGIS,VIYADGRRTFYGDGVK,GRAAGTFKS,GP_HC,nd,0 of 6
GFTLDSYGIS,VIYSDGRRTFYGDSVK,GRAAGTFHD,GPLM_HC,nd,0 of 6

Values reported by Li et al. 2023, doi:10.1038/s41467-023-39022-2 (FLAb copy).